The chains behind the UniProt entries cited, without tags or fusion partners.
UniProt Q9NR56, whole entry: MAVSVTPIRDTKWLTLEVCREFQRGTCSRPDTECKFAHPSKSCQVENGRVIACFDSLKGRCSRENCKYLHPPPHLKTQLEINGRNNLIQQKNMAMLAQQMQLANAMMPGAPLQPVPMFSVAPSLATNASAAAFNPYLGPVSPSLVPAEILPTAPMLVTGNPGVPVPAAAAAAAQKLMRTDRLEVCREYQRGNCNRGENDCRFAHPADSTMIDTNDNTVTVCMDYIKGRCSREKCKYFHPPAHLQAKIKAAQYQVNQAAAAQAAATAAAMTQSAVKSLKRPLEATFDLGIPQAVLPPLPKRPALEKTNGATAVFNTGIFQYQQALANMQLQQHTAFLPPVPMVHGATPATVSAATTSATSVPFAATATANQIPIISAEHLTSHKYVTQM

The entries are a selection whose mix differs from that of the whole data set. Records with an inconclusive call do not appear. Active and inactive are the calls of the source. The call rests on the fitted dose curve; in most records, active means well fitted inhibition curve with a large enough effect; inconclusive means small, poorly fitted or top-dose-only effect, or effect the other way; inactive means no such curve, though single readings can be large or run the other way.
These compounds were tested against Muscleblind-like protein 1 (Homo sapiens) (UniProt Q9NR56) (assay: qHTS Assay for Inhibitors of MBNL1-poly(CUG) RNA binding: Initial hit validation in AlphaScreen assay for MBNL1-(CUG)12 binding). Conditions: AlphaScreen MBNL1-His / biotin-(CUG)12 binding.
Text: NIH Chemical Genomics Center [NCGC] NIH Molecular Libraries Probe Production Centers Network [MLPCN] MLPCN Grant: R03 MH087421-01 Assay Submitter (PI): Charles Thornton NCGC Assay Overview: Expanded CTG repeats in the 3' untranslated region of the DM protein kinase (DMPK) gene causes type I myotonic dystrophy (DM1). DM1 is a multi-systemic disease with a prevalence of 1/7000. Clinical features include myotonia, progressive muscle weakness and wasting, cardiac arrhythmia, insulin resistance, hypersomnolence, cataracts, and other symptoms. The pathogenic effect of expanded CTG repeats stems from deleterious effects of the mutant transcript. CUGexp mRNA accumulates in nuclear foci and sequesters proteins of the muscleblind family, of which MBNL1 is the most common family member in skeletal muscles. […]
NCGC Assay Protocol Summary: This is a proximity-based binding assay with MBNL1-His and Biotin-(CUG)12 RNA. […] The AC50 values were determined from concentration-response data modeled with the standard Hill equation Assay buffer: 20mM HEPES, 110mM KCl, 10mM NaCl, 2mM MgCl2, 2mM CaCl2, 5mM DTT, 0.1% BSA, 0.05% Tween 20 1536-well assay protocol for the MBNL1-(CUG)12 binding assay: (1) Add 2 ul/well 20nM MBNL1-His, 20nM Biotin-(CUG)12 (2) Add 23 nL compounds in DMSO solution. […]
With N#[O+].[C-]#N.[C-]#N.[C-]#N.[C-]#N.[C-]#N.[Fe+2].[Na+].[Na+] the Potency was active: 35.5 µM. In the case of C/C1=C2N=C(/C=C3N=C(/C(C)=C4\[N-][C@@](C)([C@H]5N=C1[C@@](C)(CCC(=O)NC[C@H](C)OP(=O)([O-])O[C@@H]1[C@H](O)[C@H](n6cnc7cc(C)c(C)cc76)O[C@@H]1CO)[C@@H]5CC(N)=O)[C@](C)(CC(N)=O)[C@H]4CCC(N)=O)[C@@](C)(CC(N)=O)[C@@H]\3CCC(N)=O)C(C)(C)[C@@H]/2CCC(N)=O.[C-]#N.[Co+3], the Potency is reported as active: 7.83 µM.
